Laboratory results from US8790689B2, “Tamper resistant transdermal dosage form” (dated 2014).

Assays:
[1] = Plasma pharmacokinetics after 30 minute buccal application of fentanyl formulations; conditions: single administration of fentanyl to male beagle dogs, all time points
[2] = Plasma pharmacokinetics after single intraperitoneal co-administration of fentanyl and naltrexone; conditions: for AUCinf (mean) / Cmax (mean) / t1/2 (mean) / tmax (mean): plasma
[3] = Plasma pharmacokinetics after IV co-injection of fentanyl and naltrexone
[4] = Group 1: 125 μg/kg fentanyl, 125 μg/kg naltrexone i.p.
[5] = Group 2: 125 μg/kg fentanyl, 31.3 μg/kg naltrexone i.p.
[6] = Group 3: 125 μg/kg fentanyl, 12.5 μg/kg naltrexone i.p.
[7] = IV co-injection, 45 μg/kg each of fentanyl and naltrexone

Row | Compound | AUCinf (mean) [2, 4] [ng·h/mL] | Cmax (mean) [2, 4] [ng/mL] | tmax (mean) [2, 4] [min] | AUCinf (mean) [2, 5] [ng·h/mL] | Cmax (mean) [2, 5] [ng/mL] | tmax (mean) [2, 5] [min] | AUCinf (mean) [2, 6] [ng·h/mL] | Cmax (mean) [2, 6] [ng/mL] | tmax (mean) [2, 6] [min] | further results
1 | norfentanyl | 4.939 | 2.551 | 21 | 5.131 | 1.907 | 47 | 4.094 | 1.809 | 59 | norfentanyl mean plasma concentration [1]: ≤ 600 pg/mL; t1/2 (mean) [2, 4]: 101 min; t1/2 (mean) [2, 5]: 121 min; t1/2 (mean) [2, 6]: 140 min; tmax values, range over all rats ([2]; all three groups, post injection): 10 to 120 min
2 | CCC(=O)N(c1ccccc1)C1CCN(CCc2ccccc2)CC1 | 3.473 | 14.916 | 10 | 7.923 | 22.176 | 10 | 9.519 | 16.555 | 10 | tmax, Fentanyl ([3]; IV 45 μg of fentanyl and naltrexone, individual dogs c2 CSCAGR, c3 CSDAFI, c4 CSDAJN, c5 CSCACV, c6 CSDAGC, c7 CSCAGD, c8 CSDATI, c9 CSDAGW, c10 CSDAYT): 4.8 min; AUClast (mean) [3, 7]: 11.579 ng·h/mL; Cmax (mean) [3, 7]: 8.828 ng/mL; tmax (mean) [3, 7]: 6 min; tmax (individual rats) ([2]; Group 1, SAN 1-5: fentanyl 125 μg/kg and naltrexone 125 μg/kg i.p.): 10 min; tmax (individual rats) ([2]; Group 2, SAN 6-10: fentanyl 125 μg/kg and naltrexone 31.3 μg/kg i.p.): 10 min; tmax (individual rats) ([2]; Group 3, SAN 11-15: fentanyl 125 μg/kg and naltrexone 12.5 μg/kg i.p.): 10 min; tmax value for all rats ([2]; all three groups, first time point post injection): 10 min

Only a part of the results on these compounds is given; other tests are left out.
